Screens deposited in PubChem BioAssay by Broad Institute.
Rows were chosen to be rich in hits. Some 1.5% of all compounds tested hit in one or more screens of this group.
PGC1a acetyl inh – PGC1a acetylation modulation, inhibitor mode | U2OS PGC1a acetylation, AlphaScreen anti-acetyl-lysine; with virally co-expressed GCN5 acetyltransferase | 350,000 compounds, 0.17% hits | inhibition, % at 15.6 µM | AID 651687;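 active = every replicate shows inhibition of at least 40%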
miR-122 sensor – miR-122 inhibition in Huh7 cells; Huh7 miR-122 Renilla luciferase sensor, 48 h; neutral wells = 0, positive control = 100; activation (reporter increase), % at 12.5 µM; 340,000 compounds, 0.3% hits; AID 602342;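 active = mean replicate activation score at least 90 and every replicate individually at or above 90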;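 note: higher luciferase means less miR-122 activity so hits act as miR-122 inhibitors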
Env fusion inh – blocks HIV Env-driven cell-cell fusion | HeLa-JRFL Env/CEM21 cell fusion, luciferase | inhibition, % at 12.3 µM | 360,000 compounds, 1.1% hits;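 active = mean replicate inhibition score of at least 50 and every replicate individually at or above 50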
Cneo AK release – Cryptococcus neoformans lysis via adenylate kinase release. C. neoformans lysis, adenylate kinase release luminescence, 4 h; normalised: neutral wells 0, clomiphene wells 100. lysis activity, % at 15 µM. 360,000 compounds, 0.2% hits. AID 651654;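 active = mean lysis activity across replicates of at least 80%, whatever share of replicates individually reach that level; inactive = mean lysis activity below 80%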
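read-out = cell lysis signal | test system = log-phase Cryptococcus neoformans yeast cells | input = cells at 5 × 10^6 per mL | medium = fresh YPD growth medium | signal = luminescent adenylate kinase detection reagent | timing = 4 h at 37 °C static, read 1 h later | dosing = single dose | controls = Clomiphene as positive lysis control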
Yeast UUG start – alters start codon recognition fidelity in yeast. S. cerevisiae UUG-firefly luciferase reporter, luminescence/redox ratio. 350,000 tested, 0.13% active. activity score, % at 18.7 µM. AID 602363;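 active means replicate mean at a twofold rise or more, about +100% in these data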;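 further: firefly luciferase made from a UUG start codon reports start codon fidelity; reporter light over untreated wells divided by growth signal over untreated wells; some hits fall short of that in this replicate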
FN deposit inh – fibronectin deposition inhibition. AH1F fibroblasts, Alexa488-fibronectin deposition fluorescence, overnight. inhibition, % at 12.6 µM. 350,000 compounds, 0.086% hits. AID 743247;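 active = mean inhibition across replicates of 30% or more, regardless of how many single replicates reach that level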
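Test system: AH1F fibroblast monolayer depositing Alexa488-labelled fibronectin into matrix. Input: 10000 cells per well. Technique: fluorescence, ex 485 nm, em 525 nm. Buffer or medium: DMEM plus 2% serum, read in PBS. Timing: 1 h cell adhesion before compound, then overnight fibronectin incubation. Compound: single dose, pinned. Read-out basis: inhibition from reduced deposited-fibronectin fluorescence.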
Numbers stand for hits.

COc1ccc(-c2csc(C(O)c3ccc(F)cc3)n2)cc1 (stereo not given) was read as PGC1a acetyl inh inactive, miR-122 sensor inactive, Env fusion inh inactive, Cneo AK release inactive and Yeast UUG start inactive.
CC[C@@]12C(=O)N(c3cccc(Br)c3)C(=O)N1[C@H](c1cccc(C)c1)[C@@H]1C(=O)N(Cc3ccccc3)C(=O)[C@@H]12 was read as PGC1a acetyl inh inactive, miR-122 sensor inactive, Env fusion inh 65, Cneo AK release inactive, Yeast UUG start inactive and FN deposit inh inactive.
For Cc1cccc([C@@H]2[C@@H]3C(=O)N(Cc4ccccc4)C(=O)[C@@H]3[C@]3(Cc4ccccc4)C(=O)N(c4ccccc4)C(=O)N23)c1 the results were PGC1a acetyl inh inactive, miR-122 sensor inactive, Env fusion inh inactive, Cneo AK release inactive, Yeast UUG start inactive and FN deposit inh inactive.
For CC[C@@]12C(=O)N(c3ccccc3)C(=O)N1[C@H](c1cccc(C)c1)[C@@H]1C(=O)N(Cc3ccccc3)C(=O)[C@@H]12 the results were PGC1a acetyl inh inactive, miR-122 sensor inactive, Env fusion inh 88, Cneo AK release inactive, Yeast UUG start inactive and FN deposit inh inactive.
`Cc1cccc([C@@H]2[C@@H]3C(=O)N(Cc4ccccc4)C(=O)[C@@H]3[C@]3(CC(C)C)C(=O)N(c4cccc(Br)c4)C(=O)N23)c1` gave PGC1a acetyl inh inactive, miR-122 sensor inactive, Cneo AK release inactive and Yeast UUG start inactive.
Screening Cc1cccc([C@@H]2[C@@H]3C(=O)N(Cc4ccccc4)C(=O)[C@@H]3[C@]3(Cc4ccccc4)C(=O)N(c4ccc(C(F)(F)F)cc4)C(=O)N23)c1 returned Env fusion inh 64, Cneo AK release inactive and Yeast UUG start inactive.
For C[C@@H]1CN([C@@H](C)CO)C(=O)Cc2cc(NC(=O)Cn3cnnn3)ccc2O[C@@H]1CN(C)Cc1ccc(-c2ccccc2)cc1 the results were PGC1a acetyl inh inactive, miR-122 sensor inactive, Cneo AK release inactive and Yeast UUG start inactive.
NC(=O)Cn1cc(/C=N\NS(=O)(=O)c2ccc(F)cc2)c2ccccc21 was read as PGC1a acetyl inh inactive, miR-122 sensor 135, Env fusion inh inactive, Cneo AK release inactive, Yeast UUG start inactive and FN deposit inh inactive.
Cn1cnc(S(=O)(=O)N2CCCCN3[C@H](CO)[C@H](c4ccc(C#CC5CCCC5)cc4)[C@@H]3C2)c1 was read as PGC1a acetyl inh inactive, miR-122 sensor inactive, Cneo AK release inactive and Yeast UUG start inactive.
For Fc1ccc(Cn2nnnc2CN2CCN(C3CCCC3)CC2)cc1 the results were PGC1a acetyl inh inactive, miR-122 sensor inactive, Cneo AK release inactive and Yeast UUG start inactive.
`C/C=C1\COC(C(=O)NCc2ccncc2)(C(F)(F)F)C=C1C=C1CCCCC1` (stereo not given) gave PGC1a acetyl inh inactive, miR-122 sensor inactive, Env fusion inh inactive, Cneo AK release inactive, Yeast UUG start inactive and FN deposit inh inactive.
C/C=C1\COC(C(=O)NCc2cccc(OC)c2OC)(C(F)(F)F)C=C1C=C1CCCCC1 (stereo not given) was read as PGC1a acetyl inh inactive, miR-122 sensor inactive, Env fusion inh 71, Cneo AK release inactive, Yeast UUG start inactive and FN deposit inh inactive.
`CC1C(=O)N(Cc2cn(CCC3OCCCO3)nn2)CCS(=O)(=O)N1Cc1ccc(-c2ccccc2)cc1` (stereo not given) gave PGC1a acetyl inh inactive, miR-122 sensor inactive, Cneo AK release inactive, Yeast UUG start inactive and FN deposit inh inactive.
`CCOC(=O)c1c(NC(=O)/C=C/C(=O)O)sc(C)c1-c1ccc(C(C)(C)C)cc1` gave PGC1a acetyl inh 47, Env fusion inh inactive and FN deposit inh inactive.
CCOC(=O)c1c(NC(=O)/C=C\C(=O)O)sc(C)c1-c1ccccc1 was read as PGC1a acetyl inh inactive, miR-122 sensor inactive, Env fusion inh inactive and FN deposit inh inactive.
For C[C@@H]1CCCCO[C@H](CN(C)S(=O)(=O)c2ccc(Cl)cc2)[C@@H](C)CN([C@H](C)CO)C(=O)c2cc(NC(=O)c3ccncc3)ccc2O1 the results were PGC1a acetyl inh inactive, miR-122 sensor inactive, Env fusion inh inactive, Cneo AK release inactive, Yeast UUG start inactive and FN deposit inh inactive.
For COc1ccc(NS(=O)(=O)c2cccc(Cl)c2)cc1S(=O)(=O)N1CCCCC1 the results were miR-122 sensor 438, Cneo AK release inactive, Yeast UUG start inactive and FN deposit inh inactive.
For O=C(Cc1ccccc1)Nc1cccc(S(=O)(=O)N2CCCCCC2)c1 the results were Cneo AK release inactive, Yeast UUG start inactive and FN deposit inh inactive.
For COc1cc(S(=O)(=O)N2CCCCCC2)c(OC)cc1Br the results were miR-122 sensor 308, Env fusion inh inactive, Cneo AK release inactive, Yeast UUG start inactive and FN deposit inh inactive.
Screening O=[N+]([O-])c1cccc(S(=O)(=O)Nc2nc3ccccc3nc2Nc2cccc(S(=O)(=O)N3CCCCC3)c2)c1 returned Env fusion inh 72 and FN deposit inh inactive.
Screening O=C(Cc1ccc(F)cc1)Nc1cccc(S(=O)(=O)N2CCCC2)c1 returned Env fusion inh 63 and FN deposit inh inactive.
`COc1ccc(NS(=O)(=O)c2cccc(Cl)c2Cl)cc1S(=O)(=O)N1CCCCC1` gave Env fusion inh inactive and FN deposit inh inactive.
For Cn1cccc1C(C(=O)NC1CCCCC1)N(C(=O)Cc1cccs1)c1ccc2c(c1)OCO2 (stereo not given) the results were PGC1a acetyl inh inactive, miR-122 sensor inactive, Cneo AK release inactive and Yeast UUG start inactive.
CCn1nccc1C(=O)Nc1nc2ccccc2n1CCN1CCCCC1 was read as PGC1a acetyl inh inactive, miR-122 sensor inactive, Cneo AK release inactive and Yeast UUG start inactive.
`C[C@H](CO)N1C[C@H](C)[C@@H](CN(C)C(=O)NC2CCCCC2)OCc2ccccc2-c2c(n(C)c3ccccc23)C1=O` gave PGC1a acetyl inh inactive, Env fusion inh inactive and FN deposit inh inactive.
`Cc1ccc(S(=O)(=O)Nc2cccc(S(=O)(=O)N3CCCC3)c2)cc1C` gave PGC1a acetyl inh inactive, miR-122 sensor 123, Env fusion inh inactive, Cneo AK release inactive, Yeast UUG start inactive and FN deposit inh inactive.
`COc1ccc(S(=O)(=O)Nc2ccc(C)c(S(=O)(=O)N3CCOCC3)c2)cc1[N+](=O)[O-]` gave PGC1a acetyl inh inactive, miR-122 sensor 98, Env fusion inh inactive, Cneo AK release inactive and Yeast UUG start inactive.
`COc1ccc(NC(=O)COc2cc(C)cc(C)c2)cc1S(=O)(=O)N1CCCCC1` gave PGC1a acetyl inh inactive, miR-122 sensor inactive, Env fusion inh 61, Cneo AK release inactive, Yeast UUG start inactive and FN deposit inh inactive.
